Reference: PMC3684959

Biological target: GST-VCA
Experiment: AUC

latrunculin B-bound actin (from UniProt P68135 1-377) (natural protein)
stoichiometry N: 2
